Literature values, collected in article PMC10846865, “The Blood-Brain Barrier: Implications for Experimental Cancer Therapeutics” (Annual review of cancer biology, 2023).

How the values were obtained:
[1] = system: HER2-positive breast cancer metastases; design: method as in Bendell et al. 2003, Leyland-Jones 2009; details: adjuvant setting; ref Bendell et al. 2003, Leyland-Jones 2009; cited from earlier work
[2] = system: ALK-positive lung cancer and CNS metastases; design: method as in Peters et al. 2017; details: patients with ALK-positive lung cancer and CNS metastases; ref Peters et al. 2017; cited from earlier work

Row | Compound | control of metastases outside the CNS [1] | incidence of CNS metastases [1] | clinical response compared with crizotinib [2]
1 | trastuzumab | highly effective | did not decrease the incidence of CNS metastases | –
2 | CCc1cc2c(cc1N1CCC(N3CCOCC3)CC1)C(C)(C)c1[nH]c3cc(C#N)ccc3c1C2=O [alectinib] | – | – | outperforming crizotinib
